Consider five molecules from ChEMBL document CHEMBL6134888, “Challenging the "Undruggable"─Targeting STAT3 but Identifying Potent TrkA-Targeted Inhibitors” (J Med Chem, 2025).

The chains behind the UniProt entries cited, without tags or fusion partners. Where a name states a change or a piece, a line headed by the entry shows the natural chain unless it says otherwise.
Tyrosine-protein kinase ABL1 (Homo sapiens), P00519, UniProt P00519, whole entry E255K: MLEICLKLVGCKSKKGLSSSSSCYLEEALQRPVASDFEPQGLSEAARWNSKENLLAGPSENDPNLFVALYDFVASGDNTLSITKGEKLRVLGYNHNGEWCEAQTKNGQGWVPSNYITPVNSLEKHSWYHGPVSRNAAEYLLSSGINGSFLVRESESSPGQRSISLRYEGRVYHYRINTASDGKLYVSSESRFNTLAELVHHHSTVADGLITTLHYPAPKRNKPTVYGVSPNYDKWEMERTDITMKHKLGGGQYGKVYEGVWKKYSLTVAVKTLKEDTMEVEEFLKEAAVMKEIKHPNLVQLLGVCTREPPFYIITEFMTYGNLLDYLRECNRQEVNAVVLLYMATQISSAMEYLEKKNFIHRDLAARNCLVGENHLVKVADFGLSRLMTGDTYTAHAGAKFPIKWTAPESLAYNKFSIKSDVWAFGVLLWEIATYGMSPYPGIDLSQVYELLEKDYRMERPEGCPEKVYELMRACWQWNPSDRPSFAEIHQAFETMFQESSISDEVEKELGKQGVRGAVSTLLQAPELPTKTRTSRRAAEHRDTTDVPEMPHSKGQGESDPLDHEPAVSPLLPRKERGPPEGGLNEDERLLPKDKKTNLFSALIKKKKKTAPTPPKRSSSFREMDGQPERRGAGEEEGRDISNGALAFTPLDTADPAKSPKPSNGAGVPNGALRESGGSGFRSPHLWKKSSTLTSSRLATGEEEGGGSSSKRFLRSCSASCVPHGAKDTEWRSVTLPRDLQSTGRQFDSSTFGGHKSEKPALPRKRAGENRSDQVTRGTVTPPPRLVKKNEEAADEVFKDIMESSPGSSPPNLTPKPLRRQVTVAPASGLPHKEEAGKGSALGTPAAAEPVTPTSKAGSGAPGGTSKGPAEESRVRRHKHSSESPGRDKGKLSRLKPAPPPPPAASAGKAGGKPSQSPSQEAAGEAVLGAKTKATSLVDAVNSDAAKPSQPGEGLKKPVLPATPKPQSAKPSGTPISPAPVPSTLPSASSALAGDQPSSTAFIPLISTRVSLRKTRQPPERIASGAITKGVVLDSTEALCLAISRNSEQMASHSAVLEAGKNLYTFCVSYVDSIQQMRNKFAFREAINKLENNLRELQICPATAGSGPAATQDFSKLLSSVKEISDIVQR
UniProt P51451: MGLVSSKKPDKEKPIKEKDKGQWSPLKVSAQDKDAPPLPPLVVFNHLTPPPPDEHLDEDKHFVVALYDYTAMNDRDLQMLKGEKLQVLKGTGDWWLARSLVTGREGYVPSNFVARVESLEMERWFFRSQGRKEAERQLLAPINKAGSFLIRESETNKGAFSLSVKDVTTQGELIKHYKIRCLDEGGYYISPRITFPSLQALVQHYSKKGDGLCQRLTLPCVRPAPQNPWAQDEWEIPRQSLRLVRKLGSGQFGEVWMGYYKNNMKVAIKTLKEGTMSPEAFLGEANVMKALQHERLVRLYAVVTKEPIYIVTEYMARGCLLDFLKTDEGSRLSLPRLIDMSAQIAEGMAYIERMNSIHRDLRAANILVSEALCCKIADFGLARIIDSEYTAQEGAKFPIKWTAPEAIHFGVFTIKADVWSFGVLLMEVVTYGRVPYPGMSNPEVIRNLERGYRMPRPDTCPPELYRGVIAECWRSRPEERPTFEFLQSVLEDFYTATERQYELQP
UniProt P29317, whole entry: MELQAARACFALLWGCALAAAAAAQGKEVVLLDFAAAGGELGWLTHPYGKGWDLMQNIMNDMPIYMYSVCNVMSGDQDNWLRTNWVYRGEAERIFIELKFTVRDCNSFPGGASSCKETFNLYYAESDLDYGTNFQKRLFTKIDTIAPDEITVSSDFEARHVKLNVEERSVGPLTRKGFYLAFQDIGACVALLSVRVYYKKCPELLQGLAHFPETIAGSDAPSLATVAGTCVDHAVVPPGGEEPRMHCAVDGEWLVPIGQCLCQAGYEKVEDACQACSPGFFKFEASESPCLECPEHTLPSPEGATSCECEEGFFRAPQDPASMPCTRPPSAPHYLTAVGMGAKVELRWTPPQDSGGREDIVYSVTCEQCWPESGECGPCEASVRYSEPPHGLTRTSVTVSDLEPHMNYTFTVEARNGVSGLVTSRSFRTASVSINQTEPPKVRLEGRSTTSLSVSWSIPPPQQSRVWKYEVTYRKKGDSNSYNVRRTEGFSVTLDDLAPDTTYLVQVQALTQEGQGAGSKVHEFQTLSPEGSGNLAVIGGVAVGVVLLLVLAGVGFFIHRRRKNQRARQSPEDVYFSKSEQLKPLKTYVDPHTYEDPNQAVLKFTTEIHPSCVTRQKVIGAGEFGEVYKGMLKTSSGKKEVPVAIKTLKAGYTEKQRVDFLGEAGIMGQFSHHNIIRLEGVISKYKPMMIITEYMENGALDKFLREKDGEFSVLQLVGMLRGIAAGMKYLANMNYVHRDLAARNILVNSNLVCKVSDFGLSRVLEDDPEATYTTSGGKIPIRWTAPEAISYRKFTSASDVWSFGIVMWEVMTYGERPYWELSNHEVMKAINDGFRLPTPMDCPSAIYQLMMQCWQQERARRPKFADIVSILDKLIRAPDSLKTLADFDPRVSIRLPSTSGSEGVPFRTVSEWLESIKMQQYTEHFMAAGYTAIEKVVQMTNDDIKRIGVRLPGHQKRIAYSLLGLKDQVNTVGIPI
UniProt P54764, whole entry: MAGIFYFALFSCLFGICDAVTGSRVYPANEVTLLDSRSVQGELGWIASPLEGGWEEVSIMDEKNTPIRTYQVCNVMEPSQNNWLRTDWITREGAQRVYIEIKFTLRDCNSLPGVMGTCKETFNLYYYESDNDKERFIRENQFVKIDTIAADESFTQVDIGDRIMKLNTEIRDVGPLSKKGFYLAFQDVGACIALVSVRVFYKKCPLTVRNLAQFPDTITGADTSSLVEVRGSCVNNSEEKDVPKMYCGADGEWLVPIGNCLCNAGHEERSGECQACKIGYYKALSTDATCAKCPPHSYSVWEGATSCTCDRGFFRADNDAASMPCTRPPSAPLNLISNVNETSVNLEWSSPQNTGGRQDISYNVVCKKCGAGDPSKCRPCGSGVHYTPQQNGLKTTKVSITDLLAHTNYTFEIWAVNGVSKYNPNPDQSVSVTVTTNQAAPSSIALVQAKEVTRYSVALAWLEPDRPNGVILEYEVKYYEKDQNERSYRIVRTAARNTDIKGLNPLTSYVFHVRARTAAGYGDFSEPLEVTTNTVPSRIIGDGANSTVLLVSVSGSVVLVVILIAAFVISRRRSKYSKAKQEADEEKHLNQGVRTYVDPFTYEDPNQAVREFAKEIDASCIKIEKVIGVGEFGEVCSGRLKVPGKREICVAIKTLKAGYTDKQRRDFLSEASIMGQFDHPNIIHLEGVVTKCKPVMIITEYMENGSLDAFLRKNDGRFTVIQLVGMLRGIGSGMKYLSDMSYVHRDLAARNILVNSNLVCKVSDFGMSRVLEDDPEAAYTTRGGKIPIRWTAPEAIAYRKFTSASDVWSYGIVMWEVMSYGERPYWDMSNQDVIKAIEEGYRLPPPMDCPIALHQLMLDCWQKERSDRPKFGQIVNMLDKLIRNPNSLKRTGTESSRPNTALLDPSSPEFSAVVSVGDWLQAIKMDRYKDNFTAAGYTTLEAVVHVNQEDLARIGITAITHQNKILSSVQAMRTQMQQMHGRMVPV
UniProt Q05397, whole entry, looked up: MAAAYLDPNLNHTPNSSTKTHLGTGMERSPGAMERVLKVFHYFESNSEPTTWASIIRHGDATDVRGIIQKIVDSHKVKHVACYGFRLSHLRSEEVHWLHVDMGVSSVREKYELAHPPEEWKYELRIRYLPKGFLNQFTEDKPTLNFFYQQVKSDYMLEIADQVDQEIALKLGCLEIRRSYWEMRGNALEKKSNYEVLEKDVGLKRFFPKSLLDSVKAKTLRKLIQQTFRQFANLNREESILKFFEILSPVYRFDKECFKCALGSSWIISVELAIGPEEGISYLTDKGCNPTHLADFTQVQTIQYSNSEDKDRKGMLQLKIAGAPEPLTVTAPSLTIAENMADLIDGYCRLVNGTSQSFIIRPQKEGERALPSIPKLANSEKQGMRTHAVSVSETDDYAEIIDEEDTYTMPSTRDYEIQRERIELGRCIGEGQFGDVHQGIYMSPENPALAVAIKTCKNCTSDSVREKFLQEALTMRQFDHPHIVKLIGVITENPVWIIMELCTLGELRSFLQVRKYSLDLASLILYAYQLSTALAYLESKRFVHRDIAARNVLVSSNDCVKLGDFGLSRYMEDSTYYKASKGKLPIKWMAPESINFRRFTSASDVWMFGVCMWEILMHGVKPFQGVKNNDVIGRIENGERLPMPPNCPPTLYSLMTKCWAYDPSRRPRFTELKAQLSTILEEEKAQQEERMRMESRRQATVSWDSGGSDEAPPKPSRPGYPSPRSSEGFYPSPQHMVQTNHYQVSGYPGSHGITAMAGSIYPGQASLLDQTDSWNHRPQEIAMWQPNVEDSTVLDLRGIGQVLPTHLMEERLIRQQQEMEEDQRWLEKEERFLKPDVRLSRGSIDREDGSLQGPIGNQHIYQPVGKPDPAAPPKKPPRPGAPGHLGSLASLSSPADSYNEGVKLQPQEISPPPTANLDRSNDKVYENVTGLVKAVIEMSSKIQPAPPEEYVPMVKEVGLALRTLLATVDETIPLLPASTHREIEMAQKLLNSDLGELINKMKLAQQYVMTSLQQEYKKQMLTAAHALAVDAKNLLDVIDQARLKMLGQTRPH
UniProt P06239: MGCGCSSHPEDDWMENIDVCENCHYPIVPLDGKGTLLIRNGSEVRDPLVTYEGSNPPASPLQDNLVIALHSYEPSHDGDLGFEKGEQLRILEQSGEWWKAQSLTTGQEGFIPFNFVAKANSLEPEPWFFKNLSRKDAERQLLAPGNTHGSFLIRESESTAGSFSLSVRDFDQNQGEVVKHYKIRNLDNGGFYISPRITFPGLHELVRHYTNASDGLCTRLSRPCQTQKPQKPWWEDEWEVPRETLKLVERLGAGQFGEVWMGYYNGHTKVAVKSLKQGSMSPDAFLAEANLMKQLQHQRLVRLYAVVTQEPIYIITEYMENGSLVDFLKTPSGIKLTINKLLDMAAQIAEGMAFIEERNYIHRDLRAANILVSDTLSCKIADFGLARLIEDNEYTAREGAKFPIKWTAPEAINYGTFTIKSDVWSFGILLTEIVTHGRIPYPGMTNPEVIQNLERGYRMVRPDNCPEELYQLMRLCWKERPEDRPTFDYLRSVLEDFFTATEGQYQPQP
UniProt P07947, whole entry, looked up: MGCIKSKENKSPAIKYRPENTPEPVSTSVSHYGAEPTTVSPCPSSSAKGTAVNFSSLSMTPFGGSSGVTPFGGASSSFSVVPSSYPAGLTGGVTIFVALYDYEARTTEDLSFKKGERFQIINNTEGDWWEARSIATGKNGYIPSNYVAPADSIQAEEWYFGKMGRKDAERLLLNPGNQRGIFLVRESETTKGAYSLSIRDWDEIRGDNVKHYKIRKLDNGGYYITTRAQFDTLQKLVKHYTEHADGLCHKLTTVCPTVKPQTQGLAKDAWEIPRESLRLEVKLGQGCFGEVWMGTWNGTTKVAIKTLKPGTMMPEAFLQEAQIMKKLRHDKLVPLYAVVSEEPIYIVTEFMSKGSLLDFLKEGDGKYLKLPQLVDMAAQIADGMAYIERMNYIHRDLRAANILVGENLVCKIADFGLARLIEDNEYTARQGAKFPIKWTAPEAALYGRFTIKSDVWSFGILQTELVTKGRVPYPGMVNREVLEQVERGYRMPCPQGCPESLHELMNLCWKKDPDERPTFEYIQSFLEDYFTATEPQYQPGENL
UniProt P04629: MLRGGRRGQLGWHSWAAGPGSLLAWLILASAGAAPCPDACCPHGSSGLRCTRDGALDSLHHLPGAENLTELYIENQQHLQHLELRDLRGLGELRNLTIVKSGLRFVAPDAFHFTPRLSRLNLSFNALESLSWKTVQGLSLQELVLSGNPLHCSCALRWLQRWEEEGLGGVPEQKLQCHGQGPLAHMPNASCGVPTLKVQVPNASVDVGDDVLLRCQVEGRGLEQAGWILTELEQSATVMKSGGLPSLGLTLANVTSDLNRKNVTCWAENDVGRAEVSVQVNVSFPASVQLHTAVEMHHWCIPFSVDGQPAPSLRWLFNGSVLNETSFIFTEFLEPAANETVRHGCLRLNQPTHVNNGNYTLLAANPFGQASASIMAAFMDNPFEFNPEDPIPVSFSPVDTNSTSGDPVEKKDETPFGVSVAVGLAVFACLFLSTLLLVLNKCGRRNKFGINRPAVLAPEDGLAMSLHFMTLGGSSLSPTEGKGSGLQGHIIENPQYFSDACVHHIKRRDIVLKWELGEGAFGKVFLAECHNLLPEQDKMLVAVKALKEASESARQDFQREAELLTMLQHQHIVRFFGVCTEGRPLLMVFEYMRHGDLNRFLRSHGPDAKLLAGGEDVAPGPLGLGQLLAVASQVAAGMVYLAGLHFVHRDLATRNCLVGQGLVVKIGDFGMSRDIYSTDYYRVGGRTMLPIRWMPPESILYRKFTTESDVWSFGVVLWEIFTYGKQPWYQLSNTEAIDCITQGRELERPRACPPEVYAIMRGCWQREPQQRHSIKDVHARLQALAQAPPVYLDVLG

Assay [1] has as its system Tyrosine-protein kinase ABL1 (Homo sapiens), P00519 [E255K]. The conditions noted are these: dose 2500.0 nM.
Assay [2] has as its target Tyrosine-protein kinase Blk (Homo sapiens) (UniProt P51451). The note with it: dose 2500.0 nM.
For assay [3], the target named is Ephrin type-A receptor 2 (Homo sapiens) (UniProt P29317). The conditions noted are these: dose 2500.0 nM.
Assay [4] has as its target Ephrin type-A receptor 4 (Homo sapiens) (UniProt P54764). The conditions noted are these: dose 2500.0 nM.
Assay [5] deals with Focal adhesion kinase 1 (Homo sapiens) (UniProt Q05397). The note with it: dose 2500.0 nM.
Assay [6] addresses T1, Tyrosine-protein kinase JAK2 (Homo sapiens, UniProt O60674). The note with it: dose 2500.0 nM.
Assay [7] deals with T2, Tyrosine-protein kinase JAK3 (Homo sapiens) (UniProt P52333).
T2 sequence (whole entry): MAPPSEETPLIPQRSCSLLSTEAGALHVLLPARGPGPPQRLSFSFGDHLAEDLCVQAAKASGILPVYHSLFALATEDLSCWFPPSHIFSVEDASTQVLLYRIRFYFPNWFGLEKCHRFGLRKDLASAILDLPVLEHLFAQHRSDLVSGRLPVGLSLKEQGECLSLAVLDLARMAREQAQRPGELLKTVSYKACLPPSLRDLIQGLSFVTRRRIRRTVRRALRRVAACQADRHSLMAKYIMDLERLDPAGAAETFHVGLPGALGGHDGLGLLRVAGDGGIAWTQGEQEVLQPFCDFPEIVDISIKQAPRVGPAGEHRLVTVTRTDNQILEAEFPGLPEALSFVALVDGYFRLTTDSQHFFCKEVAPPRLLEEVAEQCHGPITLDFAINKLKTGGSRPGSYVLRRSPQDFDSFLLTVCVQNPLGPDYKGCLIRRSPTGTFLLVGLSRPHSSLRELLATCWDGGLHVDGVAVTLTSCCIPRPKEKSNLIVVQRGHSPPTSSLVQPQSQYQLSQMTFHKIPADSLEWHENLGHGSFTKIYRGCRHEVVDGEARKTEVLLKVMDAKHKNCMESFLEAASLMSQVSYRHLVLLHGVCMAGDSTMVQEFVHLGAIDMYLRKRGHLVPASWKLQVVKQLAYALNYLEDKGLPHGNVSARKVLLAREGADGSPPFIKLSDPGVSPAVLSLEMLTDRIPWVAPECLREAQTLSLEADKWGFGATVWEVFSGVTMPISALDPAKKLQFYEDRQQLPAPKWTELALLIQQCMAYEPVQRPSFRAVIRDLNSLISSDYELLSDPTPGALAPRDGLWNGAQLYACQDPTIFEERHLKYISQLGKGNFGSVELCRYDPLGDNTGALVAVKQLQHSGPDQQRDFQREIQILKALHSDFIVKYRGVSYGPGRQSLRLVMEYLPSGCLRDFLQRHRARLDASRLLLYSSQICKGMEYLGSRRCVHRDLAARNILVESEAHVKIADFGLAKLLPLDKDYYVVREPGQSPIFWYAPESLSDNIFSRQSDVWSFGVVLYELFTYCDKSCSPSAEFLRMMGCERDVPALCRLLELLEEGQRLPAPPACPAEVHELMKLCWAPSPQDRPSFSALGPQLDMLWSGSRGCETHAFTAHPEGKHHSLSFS
The note with it: dose 2500.0 nM.

Assay [8] addresses Tyrosine-protein kinase Lck (Homo sapiens) (UniProt P06239). The conditions noted are these: dose 2500.0 nM.
Assay [9] addresses T3, Proto-oncogene tyrosine-protein kinase Src (Homo sapiens, UniProt P12931). The conditions noted are these: dose 2500.0 nM.
Assay [10] addresses T4, Tyrosine-protein kinase TXK (Homo sapiens) (UniProt P42681).
T4 sequence (whole entry): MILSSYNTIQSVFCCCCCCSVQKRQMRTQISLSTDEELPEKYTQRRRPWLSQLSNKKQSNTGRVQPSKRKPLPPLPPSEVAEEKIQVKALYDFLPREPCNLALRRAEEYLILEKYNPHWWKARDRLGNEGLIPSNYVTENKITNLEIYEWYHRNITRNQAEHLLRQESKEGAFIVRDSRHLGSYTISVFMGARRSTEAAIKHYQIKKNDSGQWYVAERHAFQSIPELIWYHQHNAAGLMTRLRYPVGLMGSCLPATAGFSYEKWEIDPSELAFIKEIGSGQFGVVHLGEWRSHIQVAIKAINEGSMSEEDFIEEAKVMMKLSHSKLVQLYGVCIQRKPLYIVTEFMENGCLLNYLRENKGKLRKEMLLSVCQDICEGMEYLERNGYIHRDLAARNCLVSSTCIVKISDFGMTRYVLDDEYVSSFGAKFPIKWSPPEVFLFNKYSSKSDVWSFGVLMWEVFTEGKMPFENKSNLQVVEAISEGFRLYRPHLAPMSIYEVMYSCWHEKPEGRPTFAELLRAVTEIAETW
The note with it: dose 2500.0 nM.

In assay [11] the target is Tyrosine-protein kinase Yes (Homo sapiens) (UniProt P07947). The conditions noted are these: dose 2500.0 nM.
Assay [12] has as its system Tyrosine-protein kinase ABL1 (Homo sapiens), P00519 [E255K]. The conditions noted are these: dose 250.0 nM.
Assay [13] addresses Tyrosine-protein kinase Blk (Homo sapiens) (UniProt P51451). The note with it: dose 250.0 nM.
Assay [14] concerns the target Ephrin type-A receptor 2 (Homo sapiens) (UniProt P29317). The conditions noted are these: dose 250.0 nM.
For assay [15], the target named is Ephrin type-A receptor 4 (Homo sapiens) (UniProt P54764). The conditions noted are these: dose 250.0 nM.
The target of assay [16] is Focal adhesion kinase 1 (Homo sapiens) (UniProt Q05397). The note with it: dose 250.0 nM.
Assay [17] has as its target T1, Tyrosine-protein kinase JAK2. The note with it: dose 250.0 nM.
For assay [18], the target named is T2, Tyrosine-protein kinase JAK3 (Homo sapiens). The conditions noted are these: dose 250.0 nM.
In assay [19] the target is Tyrosine-protein kinase Lck (Homo sapiens) (UniProt P06239). The conditions noted are these: dose 250.0 nM.
Assay [20] addresses T3, Proto-oncogene tyrosine-protein kinase Src. The conditions noted are these: dose 250.0 nM.
Assay [21] addresses T4, Tyrosine-protein kinase TXK (Homo sapiens). The note with it: dose 250.0 nM.
For assay [22], the target named is Tyrosine-protein kinase Yes (Homo sapiens) (UniProt P07947). The note with it: dose 250.0 nM.
Assay [23] relates to Tyrosine-protein kinase ABL1 (Homo sapiens), P00519 [E255K]. The conditions noted are these: dose 25.0 nM.
Assay [24] addresses Tyrosine-protein kinase Blk (Homo sapiens) (UniProt P51451). The conditions noted are these: dose 25.0 nM.
For assay [25], the target named is Ephrin type-A receptor 2 (Homo sapiens) (UniProt P29317). The conditions noted are these: dose 25.0 nM.
Assay [26] concerns the target Ephrin type-A receptor 4 (Homo sapiens) (UniProt P54764). The note with it: dose 25.0 nM.
For assay [27], the target named is Focal adhesion kinase 1 (Homo sapiens) (UniProt Q05397). The note with it: dose 25.0 nM.
The target of assay [28] is T1, Tyrosine-protein kinase JAK2. The note with it: dose 25.0 nM.
The target of assay [29] is T2, Tyrosine-protein kinase JAK3 (Homo sapiens). The conditions noted are these: dose 25.0 nM.
In assay [30] the target is Tyrosine-protein kinase Lck (Homo sapiens) (UniProt P06239). The conditions noted are these: dose 25.0 nM.
Assay [31] addresses T4, Tyrosine-protein kinase TXK (Homo sapiens). The conditions noted are these: dose 25.0 nM.
Assay [32] has as its target Tyrosine-protein kinase Yes (Homo sapiens) (UniProt P07947). The note with it: dose 25.0 nM.
In assay [33] the target is Signal transducer and activator of transcription 3 (Homo sapiens) (UniProt P40763). In words: Induction of thermal stabilization of recombinant STAT3 (127 to 668 residues)(unknown origin) assessed as reduction in fluorescence intensity incubated for 3 hrs by SYPRO orange dye based DSF analysis. The conditions noted are these: dose 100.0 µM. A general note: In DSF a fluorescence change marks the thermal transition of the protein.

The target is the same in assay [34]. Put plainly: Binding affinity to STAT3 (unknown origin) SH2 domain by FP assay.
For assay [35] the target is unchanged. Put plainly: Induction of thermal stabilization of STAT3 (unknown origin) at 100 uM by thermal shift assay.
Assay [36] shares this target. Put plainly: Inhibition of STAT3 in oncostatin M-stimulated human U3A cells at 20 uM pretreated with compound for 1 hr followed by oncostatin M induction and measured after 6 hrs by luciferase assay relative to control. The format is cell-based.
Assay [37] addresses T5, High affinity nerve growth factor receptor (Homo sapiens, UniProt P04629). The conditions noted are these: dose 100.0 nM.
Assay [38] has as its target T5, High affinity nerve growth factor receptor. The conditions noted are these: dose 100.0 nM. This is another data set of the same source.
Assay [39] shares this target. The conditions noted are these: dose 10.0 nM.
Assay [40] has the same target. The note with it: dose 100.0 nM. This is another data set of the same source.

Each structure is given as a SMILES string. Active and inactive are the calls of the source. The calls are words filed in the database; no cut-off is given here.

With `CC(=O)Nc1cccc(-c2cnc(N)c(N[C@H](C)c3ccccc3)n2)c1`, the inhibition (as a rule, the relative decrease from the control value, in per cent) was found to be 71% in assay [1]; 84% in assay [2]; 67% in assay [3]; 57% in assay [4]; 92% in [5]; 87% in assay [6]. For the same molecule, the inhibition in assay [7] turned out to be 59%; in assay [8], 86%; in [9] it was 79%; in assay [10], 86%; in [11], 75%; in assay [12], 28%. The inhibition in assay [13] stood at 24%; in [14], 15%; in [15] it was 6%; in assay [16], 47%; in [17] it was 76%; in assay [18], 11%. Also, the inhibition in [19] was found to be 50%; in assay [20], 33%; in assay [21], 61%; in [22], 30%; in assay [23], 7%; in [24] it was 1%. For the same molecule, the inhibition in assay [25] is -1%; in assay [26], -3%; in [27] it was 6%; in [28], 22%; in assay [29] it was 5%; in assay [30], 18%. For the same molecule, the inhibition in assay [31] came to 18%; in [32] it was 9%.
Turning to `CC(Nc1nc(-c2cccnc2)cnc1N)c1ccccc1` (racemic), in [33], the Activity entry is “Dose-dependent-effect”. The result in assay [34] and in assay [35] was Active. For the same molecule, the inhibition in [36] was determined as 40%.
On to `C[C@@H](Nc1nc(-c2cccc(N(C)C)c2)cnc1N)c1ccccc1`, for which the inhibition in [37] amounted to 56%; in assay [38], 100%; in [39], 41%; in assay [40], 76%.
`CC(Nc1nc(-c2cccc(N(C)C)c2)cnc1N)c1ccccc1` (racemic): the Activity entry in [33] is “Dose-dependent-effect”. Further, the outcome in assay [34] and in assay [35] was Active. In addition, the inhibition in [36] stood at 40%; in assay [37] it was 36%; in [38] it was 55%.
Take `C[C@H](Nc1nc(-c2cccc(N(C)C)c2)cnc1N)c1ccccc1`: the inhibition in [37] was 10%; in [38], 40%; in assay [39] it was 7%; in assay [40], 0%.
